In PubChem BioAssay AID602162 (NMMLSC, 2011):
The entries are a selection whose mix differs from that of the whole data set. Calls of active or inactive are those of the source.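 The calls were made as follows: active = fluorescence ratio to DMSO below 75%, the collection mean minus 3 SD; inconclusive = too few cells collected in the well; inactive = the rest.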

Amino acid sequences for entries named in this document (tags omitted).
UniProt Q9NP58, whole entry: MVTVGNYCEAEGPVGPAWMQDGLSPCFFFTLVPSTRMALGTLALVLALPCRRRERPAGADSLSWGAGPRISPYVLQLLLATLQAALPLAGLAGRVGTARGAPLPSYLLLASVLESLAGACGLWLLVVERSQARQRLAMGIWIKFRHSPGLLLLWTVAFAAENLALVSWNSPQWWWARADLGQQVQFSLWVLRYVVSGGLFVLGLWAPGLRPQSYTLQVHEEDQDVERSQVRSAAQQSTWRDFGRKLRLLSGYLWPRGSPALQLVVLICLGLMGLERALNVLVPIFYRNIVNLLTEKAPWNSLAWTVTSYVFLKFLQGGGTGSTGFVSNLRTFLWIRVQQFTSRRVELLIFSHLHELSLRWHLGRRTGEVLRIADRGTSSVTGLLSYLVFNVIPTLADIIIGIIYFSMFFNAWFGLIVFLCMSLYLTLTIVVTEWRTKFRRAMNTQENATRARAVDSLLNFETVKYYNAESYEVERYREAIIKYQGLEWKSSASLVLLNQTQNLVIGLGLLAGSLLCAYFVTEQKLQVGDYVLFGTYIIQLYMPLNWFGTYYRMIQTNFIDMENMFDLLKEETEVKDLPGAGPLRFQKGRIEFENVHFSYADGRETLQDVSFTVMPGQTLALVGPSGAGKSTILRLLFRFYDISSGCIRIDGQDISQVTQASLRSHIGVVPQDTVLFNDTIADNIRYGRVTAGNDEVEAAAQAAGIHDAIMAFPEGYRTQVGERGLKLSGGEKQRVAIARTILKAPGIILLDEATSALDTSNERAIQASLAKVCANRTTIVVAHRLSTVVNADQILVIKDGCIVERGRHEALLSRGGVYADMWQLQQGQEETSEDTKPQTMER

target: ATP-binding cassette sub-family B member 6 (Homo sapiens) (UniProt Q9NP58); test: blockers of ABCB6-driven porphyrin uptake – K562-ABCB6 cells, flow cytometry, MLPCN library, primary screen (AID 602162); conditions: K562-ABCB6 porphyrin accumulation, 1 h, at 10 µM, hits give low values;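 also: signal is porphyrin accumulated inside mitochondria; 100% equals median channel fluorescence of DMSO control wells; lower ratio means ABCB6 inhibition with less porphyrin fluorescence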

SMILES	fluorescence ratio to DMSO
O=C(NCC1(N2CCCCC2)CCCCC1)c1cccs1	inactive: 101%
CCCCn1nnnc1C(CC)N1CCC(n2c(=O)[nH]c3ccccc32)CC1 (stereo unspecified)	inactive: 105%
COc1ccc(C(=O)NCC2(N3CCCCC3)CCCCC2)cc1	inactive: 104%
CCC(c1nnnn1C1CCCC1)N1CCC(n2c(=O)[nH]c3ccccc32)CC1 (stereo unspecified)	inactive: 103%
CC(C)(C)OC(=O)N1CCC(N(C(=O)c2ccccc2)c2ccc(F)cc2)CC1	inactive: 95%
COc1ccc(C(=O)NCC2(N3CCCCC3)CCCCC2)c(OC)c1OC	inactive: 94%
O=c1[nH]c2ccccc2n1C1CCN(C(c2cccc3ccccc23)c2nnnn2C2CCCC2)CC1 (stereo unspecified)	inactive: 97%
COc1cc(C(=O)NCC2(N(C)C)CCCCC2)ccc1OC(F)F	inactive: 99%
CCOC(=O)N1CCC(Nc2cccc(C)c2)CC1	inactive: 97%
O=c1[nH]c2ccccc2n1C1CCN(C(c2ccccc2)c2nnnn2C2CCCCC2)CC1 (stereo unspecified)	inactive: 98%
O=C(NCC1(N2CCCCC2)CCCCC1)c1ccc(F)cc1	inactive: 97%
CCCCn1nnnc1C(c1cc2ccccc2o1)N1CCC(n2c(=O)[nH]c3ccccc32)CC1 (stereo unspecified)	inactive: 97%
O=P1(N(CCCl)CCCl)SCCCS1	inactive: 92%
CCCCOc1ccc(C(=O)NCC2(N3CCOCC3)CCCCC2)cc1	inactive: 96%
COc1ccc(NC2CCN(CCc3ccccc3)CC2)c(OC)c1	inactive: 95%
CCOC(=O)N1CCC(Nc2ccc(F)cc2)CC1	inactive: 98%
CCOc1ccc(C)cc1CN(CCCl)CCCl	inactive: 94%
CC(C)(C)n1nnnc1C(c1ccccc1)N1CCC(n2c(=O)[nH]c3ccccc32)CC1 (stereo unspecified)	inactive: 102%
O=C1CCN(Cc2ccccc2)CC1	inactive: 103%
CCCCn1nnnc1C(c1cccc2ccccc12)N1CCC(n2c(=O)[nH]c3ccccc32)CC1 (stereo unspecified)	inactive: 92%
CN1CCN(CCOC(=O)C(O)(c2ccccc2)c2ccccc2)CC1	inactive: 98%
CC(C)c1ccc(C(=O)NCC2(N3CCOCC3)CCCCC2)cc1	inactive: 90%
COc1ccc(NC2CCN(C(=O)OC(C)(C)C)CC2)cc1	inactive: 94%

SMILES	fluorescence ratio to DMSO
COc1cc(C(=O)NCC2(N3CCCCC3)CCCCC2)ccc1OC(F)F	inactive: 108%
O=C(NCC1(N2CCOCC2)CCCCC1)c1cc(=O)[nH]c2ccccc12	inactive: 103%
O=C(NCC1(N2CCCCC2)CCCCC1)c1cccc(C(F)(F)F)c1	inactive: 106%
O=C(NCC1(N2CCCCC2)CCCCC1)c1cccc([N+](=O)[O-])c1	inactive: 94%
CSc1ccc(C(=O)NCC2(N3CCOCC3)CCCCC2)cc1	inactive: 96%
CCN1CCC(Nc2ccc(Cl)cc2)CC1	inactive: 99%
N#CC1(Nc2ccccc2)CCN(CCc2ccccc2)CC1	inactive: 10100%
O=c1[nH]c2ccccc2n1C1CCN(C(c2ccccc2OC(F)(F)F)c2nnnn2C2CCCC2)CC1 (stereo unspecified)	inactive: 105%
CC(C)(C)n1nnnc1C(c1ccccc1OC(F)(F)F)N1CCC(n2c(=O)[nH]c3ccccc32)CC1 (stereo unspecified)	inactive: 97%
O=C(NCC1(N2CCCCC2)CCCCC1)c1ccc(OC(F)F)cc1	inactive: 93%
Cc1ccc(C(=O)NCC2(N(C)C)CCCCC2)o1	inactive: 105%
CCCOc1ccc(C(=O)NCC2(N(C)C)CCCCC2)cc1OC	inactive: 96%
COc1ccc(C(c2nnnn2C2CCCC2)N2CCC(n3c(=O)[nH]c4ccccc43)CC2)cc1 (stereo unspecified)	inactive: 95%
O=C(NCC1(N2CCCCC2)CCCCC1)c1cncc(Br)c1	inactive: 88%
CN1CCC(Nc2cccc(F)c2)CC1	inactive: 102%
CCCCn1nnnc1C(c1ccnc2ccccc12)N1CCC(n2c(=O)[nH]c3ccccc32)CC1 (stereo unspecified)	inactive: 88%
COc1cc(OC)c(C(=O)NCC2(N(C)C)CCCCC2)cc1OC	inactive: 95%
O=C(NCC1(N2CCOCC2)CCCCC1)c1cc(F)c(F)cc1Cl	inactive: 100%
CCC(c1nnnn1C(C)(C)C)N1CCC(n2c(=O)[nH]c3ccccc32)CC1 (stereo unspecified)	inactive: 116%
COc1ccc(CN(CCCl)CCCl)cc1Cl	inactive: 93%
CN(C)c1cccc(C(=O)NCC2(N3CCCCC3)CCCCC2)c1	inactive: 99%
CCCCn1nnnc1C(c1ccccc1OC(F)(F)F)N1CCC(n2c(=O)[nH]c3ccccc32)CC1 (stereo unspecified)	inactive: 94%
CC(C)c1ccc(NC2CCN(C(=O)OC(C)(C)C)CC2)cc1	inactive: 96%
